ChEMBL document CHEMBL1124043, “Pyrido[2,1-b]quinazolinecarboxamide derivatives as platelet activating factor antagonists” (J Med Chem, 1988)

Test system: Platelet-activating factor receptor (Canis familiaris)
Test: Percent inhibition of binding of platelet activating factor (PAF) to dog platelets using [3H]PAF as radioligand at a concentration of 1 uM
Conditions: Canis lupus familiaris

| inhibition | Compound |
| --- | --- |
| 9% | Cc1cc2nc3ccc(C(=O)NCCCCCC[n+]4ccccc4)cn3c(=O)c2cc1C |
| 16% | CC(C)c1ccc2nc3ccc(C(=O)OCCCCc4cccnc4)cn3c(=O)c2c1 |
